Consider 2 compounds from ChEMBL document CHEMBL2176912, “Diphenyl purine derivatives as peripherally selective cannabinoid receptor 1 antagonists” (J Med Chem, 2012).

Chains of the proteins cited; added tags and fusions are not shown.
UniProt P21554, whole entry: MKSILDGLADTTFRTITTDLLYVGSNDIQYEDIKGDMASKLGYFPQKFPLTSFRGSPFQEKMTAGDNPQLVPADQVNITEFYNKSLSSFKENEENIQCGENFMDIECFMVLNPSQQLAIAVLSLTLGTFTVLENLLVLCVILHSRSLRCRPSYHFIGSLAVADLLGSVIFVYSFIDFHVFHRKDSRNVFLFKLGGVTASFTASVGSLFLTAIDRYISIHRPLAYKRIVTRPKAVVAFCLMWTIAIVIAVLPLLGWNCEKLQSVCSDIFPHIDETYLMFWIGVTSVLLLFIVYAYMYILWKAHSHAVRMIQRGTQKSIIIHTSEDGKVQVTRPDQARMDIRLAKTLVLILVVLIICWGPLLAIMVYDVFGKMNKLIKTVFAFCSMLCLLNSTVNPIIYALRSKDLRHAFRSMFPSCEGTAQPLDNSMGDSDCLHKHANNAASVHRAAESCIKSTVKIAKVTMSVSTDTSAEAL

Molecules are shown by their SMILES.

One assay deals with Cannabinoid receptor 1 (Homo sapiens, UniProt P21554). Description: Antagonist activity at human CB1 receptor transfected in CHO-K1 cells co-expressing Galphaq16 assessed as intracellular calcium mobilization using Calcein-4 AM by fluorescence assay. In kind it is functional, cell-based. Put shortly: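 CHO-K1 cells engineered to coexpress human CB1 and Gαq16. Calcium flux read with fluorescent dye Calcein-4 AM on a plate reader. Antagonism measured as rightward shift of the CP55940 concentration–response curve. Ke = [ligand]/(DR−1), where DR is the ratio of CP55940 EC50 with and without test agent. Values are averages of 3–6 measurements.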

The next assay has as its system CHO-K1. Description: Selectivity ratio of Ki for human CB2 receptor expressed in CHO-K1 cells to Ki for human CB1 receptor expressed in CHO-K1 cells.

`CCNC1(C(N)=O)CCN(c2ncnc3c2nc(-c2ccccc2Cl)n3-c2ccc(Cl)cc2)CC1` [OTENABANT]: the Ke at Cannabinoid receptor 1 is 8.7 nM. For the compound `CCCCNC(=O)NC1(c2ccccc2)CCN(c2ncnc3c2nc(-c2ccccc2Cl)n3-c2ccc(Cl)cc2)CC1`, in the assay with CHO-K1, the Ratio Ki was above 74.
